Experimental data: ChEMBL document CHEMBL1152381, “Investigation of aminopyridiopyrazinones as PDE5 inhibitors: Evaluation of modifications to the central ring system” (Bioorg Med Chem Lett, 2009)

Target: cGMP-specific 3',5'-cyclic phosphodiesterase (Homo sapiens, UniProt O76074)
Test: Inhibition of PDE5

Compound: CCCOCCn1c(=O)c(NCCN2CCOCC2)nc2ccc(-c3ccc(OC)nc3)nc21
- IC50: 2.9 nM
